Reference: PubChem BioAssay AID434962 (The Scripps Research Institute Molecular Screening Center, 2010)
Only a part is listed here, and it is no random draw. Some tests of the compounds listed are not included; inactive here does not mean inactive elsewhere. The source made the active and inactive calls.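 How the source made its calls: active means percent inhibition above the average of all tested compounds plus 3 SD, set per screening campaign (cut at about 16% in these data); inactive means the rest.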

Amino acid sequences for entries named in this document (tags omitted).
UniProt P14735, whole entry: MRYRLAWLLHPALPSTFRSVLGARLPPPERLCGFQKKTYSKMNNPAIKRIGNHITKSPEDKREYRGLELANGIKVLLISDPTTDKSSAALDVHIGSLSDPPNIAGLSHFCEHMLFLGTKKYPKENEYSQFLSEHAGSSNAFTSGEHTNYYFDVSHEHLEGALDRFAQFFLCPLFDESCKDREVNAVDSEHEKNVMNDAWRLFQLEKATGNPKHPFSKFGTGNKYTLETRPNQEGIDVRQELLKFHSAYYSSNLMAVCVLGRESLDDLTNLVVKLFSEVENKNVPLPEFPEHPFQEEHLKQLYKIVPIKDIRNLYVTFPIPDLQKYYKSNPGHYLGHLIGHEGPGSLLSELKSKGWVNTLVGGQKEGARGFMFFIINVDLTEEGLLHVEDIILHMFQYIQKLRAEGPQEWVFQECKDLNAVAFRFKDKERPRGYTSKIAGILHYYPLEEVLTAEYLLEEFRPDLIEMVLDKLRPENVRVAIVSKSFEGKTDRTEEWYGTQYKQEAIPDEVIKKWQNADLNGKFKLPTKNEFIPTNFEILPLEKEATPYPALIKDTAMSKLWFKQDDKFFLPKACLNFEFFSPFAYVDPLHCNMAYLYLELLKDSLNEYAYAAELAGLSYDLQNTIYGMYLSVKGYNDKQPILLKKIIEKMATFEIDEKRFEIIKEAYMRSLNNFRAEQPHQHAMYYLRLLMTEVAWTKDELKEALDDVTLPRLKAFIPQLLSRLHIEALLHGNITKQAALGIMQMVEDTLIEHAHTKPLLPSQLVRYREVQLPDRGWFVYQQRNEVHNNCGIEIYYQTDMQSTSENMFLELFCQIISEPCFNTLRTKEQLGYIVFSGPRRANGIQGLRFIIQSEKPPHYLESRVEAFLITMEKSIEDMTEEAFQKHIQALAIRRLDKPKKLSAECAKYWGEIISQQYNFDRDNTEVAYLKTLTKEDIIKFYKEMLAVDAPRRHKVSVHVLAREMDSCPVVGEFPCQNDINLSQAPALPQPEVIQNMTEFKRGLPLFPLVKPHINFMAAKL

target: Insulin-degrading enzyme (Homo sapiens) (UniProt P14735); test: human IDE inhibitors in live cells, primary screen, fluorescence polarization, HEK cells, FAbetaB substrate (AID 434962); details: FAbetaB cleavage, at 5.59 µM, stronger effect = higher value;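 further: IDE supplied by intact live HEK cells; FP after avidin binding of uncleaved biotin substrate so inhibition keeps polarization high; 0% = DMSO wells and 100% = 60 µM reference IDE inhibitor Ii1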

Structure (SMILES)	inhibition
O=C(NCC1(N2CCCCC2)CCCCC1)c1cccc(Cl)c1	inactive: 2.92%
COc1ccc(Cl)cc1C(=O)NCC1(N(C)C)CCCCC1	inactive: 0.35%
COc1cccc(C(=O)NCC2(N3CCCCC3)CCCCC2)c1	inactive: 2.67%
COc1cc(C(=O)NCC2(N(C)C)CCCCC2)c([N+](=O)[O-])cc1OC	inactive: -0.23%
CN(C)C1(CNC(=O)c2ccc(Br)cc2)CCCCC1	inactive: -1.49%
CC(C)Oc1ccc(C(=O)NCC2(N(C)C)CCCCC2)cc1	inactive: 0.28%
CN(C)c1cccc(C(=O)NCC2(N(C)C)CCCCC2)c1	inactive: 1.23%
COc1ccc(Br)c(C(=O)NCC2(N3CCCCC3)CCCCC2)c1	inactive: 2.3%
O=C(OC1CN2CCC1CC2)C(CO)(c1ccccc1)c1ccccc1 (centres undefined)	inactive: 0.64%
Cc1ccc(C(=O)NCC2(N3CCCCC3)CCCCC2)cc1	inactive: -1.57%
COc1cc(SC)ccc1C(=O)NCC1(N(C)C)CCCCC1	inactive: 1.98%
CCN(CC)CC(C)C(C)OC(=O)C(O)(c1ccccc1)c1ccccc1 (centres undefined)	inactive: -2.28%
CC(C)N1C(=O)CC2(CCN(CCOC(=O)C(O)(c3ccccc3)c3ccccc3)CC2)C1=O	inactive: -2%
CN1[C@@H]2CC[C@H]1CC(OC(=O)C(O)(c1ccccc1)c1ccccc1)C2 (some centres undefined)	inactive: 2.04%
O=C(NCC1(N2CCCCC2)CCCCC1)c1cc([N+](=O)[O-])ccc1Cl	inactive: 6.53%
COc1ccc(C(=O)NCC2(N(C)C)CCCCC2)cc1	inactive: -0.27%
O=C(NCC1(N2CCCCC2)CCCCC1)c1cccc(Br)c1	inactive: -4.24%
CCN1CCCC(OC(=O)C2(O)c3ccccc3C=Cc3ccccc32)C1 (centres undefined)	inactive: -1.26%
Cc1cc(C(=O)NCC2(N3CCCCC3)CCCCC2)ccc1[N+](=O)[O-]	inactive: 3.58%
O=C(NCC1(N2CCCCC2)CCCCC1)c1cc(F)c(F)cc1Cl	inactive: -2.52%
C=CCN1CCN(CCOC(=O)C(O)(c2ccccc2)c2ccccc2)CC1	inactive: 7.81%
CN(C)c1ccc(C(=O)NCC2(N(C)C)CCCCC2)cc1	inactive: 4.56%
CN(C)C1CCCC1OC(=O)C(O)(c1ccccc1)c1ccccc1 (centres undefined)	inactive: -3.79%
Cc1ccccc1C(=O)NCC1(N2CCCCC2)CCCCC1	inactive: 7.15%
